# Measurements from patent US6569353B1, “Reactive decontamination formulation” (dated 2003).
# System: Bacillus subtilus globigii spores
# Assay: Spore destruction by oxidant solutions (Example 11)
# Settings: 1.3×10^8 spores on glass slide in 8 mL; 0.13 M hypochlorite or 1.3 M activated peroxide + 0.13 M OXONE; detection limit 99.99998% (6.6 log) reduction
substance,measurement,value
Sodium Hypochlorite,time to eliminate all detectable spores,≤ 5 min
